Laboratory results taken from US4770870A, “Method for reducing pain associated with the administration of 4-sulfido-oxazaphosphorines and 4-sulfoalkylthio-oxazaphorphorines” (Asta Pharma Aktiengesellschaft, priority 1981, dated 1988).

Key:
L1210 leukemia cells = assay: L1210 leukemia on the mouse, intraperitoneal chemotherapy; conditions: L1210, mole ratio 1:5 for combination
[1] = Acute toxicity (LD50), NMRI-mouse; conditions: for LD50 (30 days observation time) / LD50 (90 days observation time): female NMRI-mice

## O=P1(N(CCCl)CCCl)NC(SCCO)CCO1 (centres unmarked)
L1210 leukemia cells
  therapeutic breadth TI50 (quotient of LD50 and CD50): 3.5
[1]; intraperitoneal, 20 ml/kg
  LD50 (30 days observation time): 238 mg/kg
  LD50 (90 days observation time): 160 mg/kg
[1]; intraperitoneal, injection volume 200 ml/kg, based on the P1 component, mole ratio P1:cysteine 1:5 for the combination
  LD50: 460 mg/kg
[1]; intravenous, P1 itself (without cysteine)
  LD50: 290 mg/kg
[1]; intravenous
  LD50 (30 days observation time): 290 mg/kg
  LD50 (90 days observation time): 215 mg/kg
[1]; slower intravenous or intraperitoneal dosage, mouse, in the presence of a 5 fold molar excess of cysteine
  increase of the LD50: 3-4 fold
